Data as given in patent US7049323B2, “Amidoheterocycles as modulators of the melanocortin-4 receptor” (Bristol-Myers Squibb Company, priority 2003, dated 2006).

By UniProt entry, the sequences of proteins in these tests, tags left out.
UniProt P32245, whole entry: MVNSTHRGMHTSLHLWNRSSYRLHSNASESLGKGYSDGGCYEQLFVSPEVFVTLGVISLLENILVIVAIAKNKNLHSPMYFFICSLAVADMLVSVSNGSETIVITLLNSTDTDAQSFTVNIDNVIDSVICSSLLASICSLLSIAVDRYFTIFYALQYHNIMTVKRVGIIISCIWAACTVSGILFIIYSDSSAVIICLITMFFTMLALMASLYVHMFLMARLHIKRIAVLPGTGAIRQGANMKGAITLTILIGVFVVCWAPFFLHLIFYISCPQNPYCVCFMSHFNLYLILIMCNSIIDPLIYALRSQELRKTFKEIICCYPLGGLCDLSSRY

These compounds were tested against cloned human MC4R receptors (Homo sapiens, UniProt P32245) (assay: Melanocortin MC4R membrane binding assay ([125I]NDP-α-MSH competition)). Settings: read-out: MC4R IC50; [125I]NDP-α-MSH 0.1 nM, membranes of Hi5 insect cells or HEK-293 cells, 90 minutes at 37° C.
Experimental: Melanocortin MC4R Binding Assay. […] A membrane binding assay was used to identify competitive ligands of [^125I]NDP-α-MSH binding to cloned human MC4R receptors expressed in Hi5 insect cells or HEK-293 cells transfected by a baculovirus/human MC4R receptor construct. The membrane binding buffer was composed of 25 mM HEPES, pH 7.4, 140 mM NaCl, 1.2 mM MgCl2, 2.5 mM CaCl2, and 0.1% BSA Membrane protein (0.5 μg) and [^125I]-NDP-α-MSH (to a final concentration of 0.1 nM) were added. Competing ligands or a buffer blank were added and incubated for 90 minutes at 37° C. After filtration, the cell membranes were evaluated in a Wallac Microbeta Trilux Scintillation and Luminescence Counter (Model 1450). Dose-response cureves were fitted by […] analyses and IC50 values are calculated using ExcelFit. MC4R IC50 values: <250 nM=+++; 250–1000 nM=++; 1000–10000=+.

Row | Structure (SMILES) | pIC50
1 | CN(C)CCC(=O)N[C@H](Cc1ccc(Cl)cc1)C(=O)N1CC[C@H](N(C2CCCC2)S(C)(=O)=O)C1 | 5.00 to 6.00
2 | CC(C)N(C(=O)c1ccco1)[C@H]1CCN(C(=O)[C@@H](Cc2ccc(Cl)cc2)NC(=O)[C@@H]2CNCCN2)C1 | 5.00 to 6.00
3 | NCCC(=O)N[C@H](Cc1ccc(Cl)cc1)C(=O)N1CC[C@H](N(C2CCCCC2)S(=O)(=O)c2ccccc2)C1 | 6.00 to 6.60
4 | CC(C)CC(=O)N(C(C)C)[C@H]1CCN(C(=O)[C@@H](Cc2ccc(Cl)cc2)NC(=O)CCN(C)C)C1 | 5.00 to 6.00

pIC50: −log10 of the molar value.
